Target: human D2 dopamine receptor (Homo sapiens, UniProt P14416)
Assay: R-SAT functional receptor assay, D2 receptor co-expressed with Gαo

The chains behind the UniProt entries cited, without tags or fusion partners.
UniProt P14416, whole entry: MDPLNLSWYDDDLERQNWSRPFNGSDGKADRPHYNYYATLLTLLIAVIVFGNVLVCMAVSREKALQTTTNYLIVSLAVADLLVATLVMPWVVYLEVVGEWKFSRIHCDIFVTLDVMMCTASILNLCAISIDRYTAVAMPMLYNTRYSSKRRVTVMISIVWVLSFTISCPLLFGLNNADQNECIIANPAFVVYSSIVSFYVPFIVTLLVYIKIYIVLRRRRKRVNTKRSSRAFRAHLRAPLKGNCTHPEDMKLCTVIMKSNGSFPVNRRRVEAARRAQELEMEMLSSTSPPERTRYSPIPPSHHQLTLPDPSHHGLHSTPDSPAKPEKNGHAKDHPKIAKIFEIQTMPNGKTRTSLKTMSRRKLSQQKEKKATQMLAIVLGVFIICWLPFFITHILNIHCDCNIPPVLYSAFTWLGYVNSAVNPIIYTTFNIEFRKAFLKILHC

With `CN1CCN(C2Cc3ccccc3Sc3ccc(Cl)cc32)CC1.O=C(O)/C=C\C(=O)O` (stereo not shown) [octoclothepin] the “D2 basal (basal response, no drug = 100%)” value was 76 +/− 4%.

— patent US20060252744A1 (priority 2005, published 2006)
